Experimental data reported in US6413935B1, “Induction of immune response against desired determinants” (priority 1993, dated 2002).

By UniProt entry, the sequences of proteins in these tests, tags left out. Residues count along the entry.
UniProt P01910, 24-256: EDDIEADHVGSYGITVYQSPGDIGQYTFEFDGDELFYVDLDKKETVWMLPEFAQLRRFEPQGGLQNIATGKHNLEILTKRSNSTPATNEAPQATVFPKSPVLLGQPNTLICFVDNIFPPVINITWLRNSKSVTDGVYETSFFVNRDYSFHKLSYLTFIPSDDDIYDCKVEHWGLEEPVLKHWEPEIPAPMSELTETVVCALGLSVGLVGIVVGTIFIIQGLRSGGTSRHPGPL
UniProt P06343, 28-263: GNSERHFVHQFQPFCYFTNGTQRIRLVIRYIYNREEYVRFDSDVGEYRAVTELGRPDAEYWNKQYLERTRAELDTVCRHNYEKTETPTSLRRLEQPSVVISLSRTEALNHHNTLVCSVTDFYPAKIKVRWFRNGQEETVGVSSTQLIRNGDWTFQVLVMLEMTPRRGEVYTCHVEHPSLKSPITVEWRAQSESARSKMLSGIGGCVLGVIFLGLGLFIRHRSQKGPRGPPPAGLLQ
UniProt P79483, 30-266: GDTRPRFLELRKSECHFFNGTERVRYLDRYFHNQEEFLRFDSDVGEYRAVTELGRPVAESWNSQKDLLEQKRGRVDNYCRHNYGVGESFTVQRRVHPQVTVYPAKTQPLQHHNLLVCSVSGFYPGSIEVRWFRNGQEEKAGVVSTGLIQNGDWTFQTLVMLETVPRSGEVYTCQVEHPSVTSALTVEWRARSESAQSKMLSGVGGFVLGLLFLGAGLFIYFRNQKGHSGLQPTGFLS

How the values were obtained:
IA^k = target: T1, IA^k (Mus musculus, UniProt P01910+P06343); type: binding; details: read-out: Capacity to bind purified IA^k, IC50
T1 construct: Various cell lines were used as sources of purified human and mouse class II molecules; endogenous in cells; host or cells: CH12

DR3 = DR3 (Homo sapiens, UniProt P01903+P01911, A100K/A102G/A103R/A169T/F55Y/I96L/K41T/L162R/M171V/P40S/Q125H/Q178H/Q39Y/R42S/S66N/T106N/T262R/W38E/Y61H); details: read-out: Binding capacity DR3, IC50
DR4w4 = DR4w4 (Homo sapiens, UniProt P01903+P01911, A100K/A169T/F76Y/I96L/K127E/L162R/M171V/N62H/P40V/Q125Y/R42H/S133A/S149N/S66Y/V115G/V209L/W38E); details: read-out: Binding capacity DR4w4, IC50
DR52a = DR52a (Homo sapiens, UniProt P01903+P79483); details: read-out: Binding capacity DR52a, IC50

Work on aKFVAAWTLKAAa [Peptide 1024.03] yielded an IC50 (IA^k) of over 10 µM, an IC50 (DR3) of 1.47 µM and an IC50 (DR4w4) of 0.002 µM. For the same substance, the IC50 (DR52a) was 0.797 µM.
